Laboratory results as given in patent publication US5068251A, “Lipoxygenase inhibiting compounds” (Abbott Laboratories, priority 1988, dated 1991).

Target: T1, 5-lipoxygenase (Rattus norvegicus, UniProt P12527)
T1 construct: 20,000×g supernatant from homogenized RBL-1 cells; endogenous in cells; host or cells: RBL-1 cells (20,000×g supernatant of the homogenate)
T1 sequence (P12527 1-673): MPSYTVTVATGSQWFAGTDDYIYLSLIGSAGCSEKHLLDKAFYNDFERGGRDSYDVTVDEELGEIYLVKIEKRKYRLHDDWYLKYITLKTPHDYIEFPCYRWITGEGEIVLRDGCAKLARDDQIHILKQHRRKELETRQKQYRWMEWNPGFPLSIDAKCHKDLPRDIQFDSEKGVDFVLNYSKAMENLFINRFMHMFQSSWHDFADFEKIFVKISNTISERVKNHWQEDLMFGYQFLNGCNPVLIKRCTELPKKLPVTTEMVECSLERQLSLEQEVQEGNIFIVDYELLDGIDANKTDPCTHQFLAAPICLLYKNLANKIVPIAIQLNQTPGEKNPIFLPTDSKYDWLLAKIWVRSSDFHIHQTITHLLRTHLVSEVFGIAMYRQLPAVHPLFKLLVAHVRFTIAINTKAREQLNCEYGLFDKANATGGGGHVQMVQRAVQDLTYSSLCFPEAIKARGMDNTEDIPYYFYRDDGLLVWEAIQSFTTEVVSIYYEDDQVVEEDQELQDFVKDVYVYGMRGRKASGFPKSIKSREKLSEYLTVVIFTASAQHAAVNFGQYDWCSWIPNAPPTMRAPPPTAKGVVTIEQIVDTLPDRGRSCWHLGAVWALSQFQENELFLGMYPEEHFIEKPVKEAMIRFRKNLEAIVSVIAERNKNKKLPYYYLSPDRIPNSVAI
Assay: Inhibition of 5-lipoxygenase activity in 20,000×g supernatant from homogenized RBL-1 cells
Type: biochemical
Details: linear regression of percentage inhibition versus log inhibitor concentration, read-out: IC50 (In vitro 5-lipoxygenase inhibitory potency)
Procedure: Inhibition of 5-lipoxygenase activity was determined using the 20,000×g supernatant from homogenized RBL-1 cells in a similar manner as that described by Dyer and coworkers (Dyer, R. D.; Haviv, F.; Hanel, A. M.; Bornemier, D. A.; Carter, G. W. Fed. Proc , Fed. Am. Soc. Exp. Biol. 1984, 43, 1462A). IC50 values (concentration of compound producing 50% enzyme inhibition) were calculated by linear regression analysis of percentage inhibition versus log inhibitor concentration plots.

`COc1ccc2cc(C(C)NC(=O)NO)ccc2c1` (stereo not drawn) [Example 2, N'-hydroxy-N-[l-(6-methoxynaphthalen-2yl)ethyl]urea] gave an IC50 of 4.8 µM.
